Drawing on PubChem BioAssay AID463104 (Sanford-Burnham Center for Chemical Genomics, 2010), this text covers activation for 28 molecules.

The list shows a part of the results, in another mix than the full data. The source made the active and inactive calls.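 Rule for the calls: active = versus positive control, 20 µM dose yields 30% or more activation; inactive = the rest.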

The experiment is described as follows: activators of adaptive XBP1 UPR arm, primary screen, cell-based, CHO-XBP1 luciferase reporter, luminescence, uHTS (AID 463104).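 Note: 100% = tunicamycin at 10 µg/mL and 0% = DMSO only wells.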 To be noted: IRE1-XBP1 UPR activation, at 20 µM, active compounds read high, percent of tunicamycin response, DMSO as zero. A digest of the protocol:
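Material – CHO cell line with stable XBP1 luciferase reporter · Buffer or medium – F12 plus 10% FBS · Compound – single point, 20 µM final compound, 1% DMSO · Schedule – 16-18 h cell attachment at 37 °C, then 6 h compound exposure · Signal – Steady-Glo luminescence read · Benchmarks – high control tunicamycin 10 µg/mL final, low control DMSO vehicle only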
For `CN1CCCCC1COC(=O)C1(O)c2ccccc2CCc2ccccc21` (stereo not drawn), the activation was inactive: 1.42%.

On to `COc1ccccc1OP(C)(=O)Nc1c(C)cccc1C` (stereo not drawn), for which the activation is inactive: 0.56%. In the case of `O=[N+]([O-])c1cc([N+](=O)[O-])c(Nc2nnnn2CCO)c([N+](=O)[O-])c1` it was inactive: -7.17%; in that of `CC1=C2N=C(C=C3N=C(C(C)=C4[N-][C@@](C)([C@@H]5N=C1[C@](C)(CCC(=O)NC[C@@H](C)OP(=O)([O-])O[C@H]1[C@@H](O)[C@@H](n6cnc7cc(C)c(C)cc76)O[C@@H]1CO)[C@H]5CC(N)=O)[C@@](C)(CC(N)=O)[C@@H]4CCC(N)=O)[C@@](C)(CC(N)=O)[C@@H]3CCC(N)=O)C(C)(C)[C@@H]2CCC(N)=O.[C-]#N.[Co+3]`, inactive: -10.5%. The same measure for `CCOC(=O)C(CC)C1=NC(C)(C)Cc2ccccc21.O=[N+]([O-])c1cc([N+](=O)[O-])c(O)c([N+](=O)[O-])c1` (stereo not drawn): inactive: 0%; for `CP(=O)(Nc1ccccc1Br)Oc1ccccc1` (stereo not drawn): inactive: -2.55%; for `COc1ccccc1OP(C)(=O)Nc1ccccc1` (stereo not drawn): inactive: 2.96%. The same measure for `CP(=S)(Nn1cnnc1)Oc1ccccc1` (stereo not drawn): inactive: 1.69%; for `CP(=O)(Nc1ccccn1)Oc1ccc(Cl)cc1` (stereo not drawn): inactive: -2.05%; for `O=[N+]([O-])c1cc([N+](=O)[O-])c(O)c([N+](=O)[O-])c1.c1ccc(Oc2ccncc2)cc1`: inactive: -6.21%. As for `CCOC(=O)c1ccc(NP(C)(=O)Oc2ccc(OC)cc2)cc1` (stereo not drawn), the activation is inactive: -1.85%.

As to `CCOP(C)(=S)SCC(=O)NC(C)C(=O)O` (stereo not drawn), the activation is inactive: -2.45%. `CCc1ccc(OP(C)(=O)N2CCN(c3ccc([N+](=O)[O-])cc3)CC2)cc1` (stereo not drawn): the activation is inactive: -1.57%. On to `CP(=O)(NC(=O)Nc1ccccc1)Oc1ccccc1` (stereo not drawn), for which the activation is inactive: 0.56%. In the case of `Cc1cc(C)cc(OP(C)(=O)Nc2ccc(SC(F)(F)F)cc2)c1` (stereo not drawn) it was inactive: -1.23%; in that of `CP(=O)(Nc1ccc(SC(F)(F)F)cc1)Oc1ccc(Cl)cc1` (stereo not drawn), inactive: -1.76%; in that of `Cc1cccc(C)c1OP(C)(=O)Nc1ccc(SC(F)(F)F)cc1` (stereo not drawn), inactive: 0.93%. The same measure for `CP(=O)(Oc1ccccc1)OC(c1ccccc1)C(F)(F)F` (stereo not drawn): inactive: -0.62%; for `CCN(CC)CCCOC(=O)C(O)(c1ccccc1)c1ccccc1`: inactive: -3.66%; for `Cc1cc(C)cc(OP(C)(N)=O)c1` (stereo not drawn): inactive: -1.13%. Regarding `COc1ccccc1OP(C)(=O)Nc1cc(Cl)ccc1C` (stereo not drawn), the activation was inactive: 1.07%.

For `COc1ccc(OP(C)(=O)Nc2cccc(F)c2)cc1` (stereo not drawn), the activation is inactive: -1.59%.

`COc1ccccc1OP(C)(=O)Nc1ccc(C)cc1` (stereo not drawn): the activation is inactive: -2.38%. The same measure for `Cc1ccc(NP(C)(=O)Oc2ccccc2)c(C)c1` (stereo not drawn): inactive: -2.65%; for `CCOC(=O)c1ccc(NP(C)(=O)Oc2ccccc2)cc1` (stereo not drawn): inactive: 1.25%; for `CC(C)(C)c1ccc(OP(C)(=O)Nc2ccc(SC(F)(F)F)cc2)cc1` (stereo not drawn): inactive: -2.05%. Regarding `Cc1cccc(C)c1OP(C)(N)=O` (stereo not drawn), the activation was inactive: -0.62%. `O=[N+]([O-])c1cc([N+](=O)[O-])c(Nc2cccnc2)c([N+](=O)[O-])c1`: the activation is inactive: -0.45%.
